From patent US20040259833A1 (priority 1999, published 2004)
Where two headings read alike, the source gives them in different places.

The chains behind the UniProt entries cited, without tags or fusion partners. Where a name states a change or a piece, a line headed by the entry shows the natural chain unless it says otherwise.
UniProt P0CAW2: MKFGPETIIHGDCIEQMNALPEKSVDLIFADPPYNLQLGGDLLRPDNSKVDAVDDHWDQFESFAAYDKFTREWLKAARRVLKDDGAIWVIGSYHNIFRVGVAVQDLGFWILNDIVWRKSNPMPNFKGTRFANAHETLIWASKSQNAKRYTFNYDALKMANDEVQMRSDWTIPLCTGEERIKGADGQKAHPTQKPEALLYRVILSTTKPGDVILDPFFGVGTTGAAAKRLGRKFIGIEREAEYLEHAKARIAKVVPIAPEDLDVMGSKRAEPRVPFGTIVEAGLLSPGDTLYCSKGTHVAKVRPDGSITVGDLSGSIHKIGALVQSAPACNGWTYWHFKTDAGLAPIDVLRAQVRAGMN

Molecular target: CcrM (UniProt P0CAW2)
Assay: In vitro adenine DNA methyltransferase inhibition assay, CcrM
Format: biochemical, Caulobacter cresentus or Brucella abortus
Settings: Table I, inhibition of CcrM
[1] = read-out: Ki (calculated from a Dixon plot), inhibitor 0-150 μM or 0-80 μM
[2] = read-out: Ki (estimated from IC50's)

Compound | Ki [1] | IC50 | Ki [2]
NC(CCSCNc1ncnc2c1ncn2C1CC(O)C(COP(=O)(O)O)O1)C(=O)O (stereo not drawn) | 13 µM |  | 
NC(CCSCNc1ncnc2c1ncn2C1CC(O)C(CO)O1)C(=O)O (stereo not drawn) | 41 µM |  | 
NC(CCSCNc1ncnc2c1ncn2C1OC(CO)C(O)C1O)C(=O)O (stereo not drawn) |  | 2000 µM | 160 µM
NC(CCSCNc1ncnc2c1ncn2C1OC(COP(=O)(O)O)C(O)C1O)C(=O)O (stereo not drawn) |  | 1000 µM | 80 µM
